Reference: article PMC10725471, “Chemical modulation of cytosolic BAX homodimer potentiates BAX activation and apoptosis” (Nature Communications, 2023)

Amino acid sequences for entries named in this document (tags omitted).
UniProt Q07812, whole entry: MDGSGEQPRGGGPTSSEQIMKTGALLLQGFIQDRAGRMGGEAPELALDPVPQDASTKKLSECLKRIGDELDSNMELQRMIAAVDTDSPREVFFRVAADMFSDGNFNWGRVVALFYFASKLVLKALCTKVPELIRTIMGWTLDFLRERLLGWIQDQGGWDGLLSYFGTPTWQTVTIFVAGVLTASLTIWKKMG

Biological target: cytosolic inactive BAX dimer of CALU-6 cells (Homo sapiens, UniProt Q07812)
Test: BN-PAGE assay for disruption of cytosolic inactive BAX dimer
Assay type: biochemical
Conditions: CALU-6 cytosolic fraction, 50 µM, 1 h at 30 °C, on ice for BIM SAHB

With `O=C1/C(=N\Nc2nccs2)C(c2ccccc2)=NN1c1nc(-c2ccccc2)cs1` the “disruption of cytosolic inactive BAX dimer (result in words)” value was “no capacity to disrupt the cytosolic inactive BAX dimer”.
